Data as given in US10987426B2 (ADOCIA, priority 2017, dated 2021).

Legend:
[1] = Physical stability of compositions in cartridges under static conditions at 37° C., visual inspection; settings: 1 mg/mL glucagon
[2] = Thioflavin T (ThT) fluorescence fibrillation test, latent period; type: physicochemical; settings: glucagon alone at acidic pH

## CSCC[C@H](NC(=O)[C@H](CC(C)C)NC(=O)[C@H](Cc1c[nH]c2ccccc12)NC(=O)[C@H](CCC(N)=O)NC(=O)[C@@H](NC(=O)[C@H](Cc1ccccc1)NC(=O)[C@H](CC(=O)O)NC(=O)[C@H](CCC(N)=O)NC(=O)[C@H](C)NC(=O)[C@H](CCCN=C(N)N)NC(=O)[C@H](CCCN=C(N)N)NC(=O)[C@H](CO)NC(=O)[C@H](CC(=O)O)NC(=O)[C@H](CC(C)C)NC(=O)[C@H](Cc1ccc(O)cc1)NC(=O)[C@H](CCCCN)NC(=O)[C@H](CO)NC(=O)[C@H](Cc1ccc(O)cc1)NC(=O)[C@H](CC(=O)O)NC(=O)[C@H](CO)NC(=O)[C@@H](NC(=O)[C@H](Cc1ccccc1)NC(=O)[C@@H](NC(=O)CNC(=O)[C@H](CCC(N)=O)NC(=O)[C@H](CO)NC(=O)[C@@H](N)Cc1c[nH]cn1)[C@@H](C)O)[C@@H](C)O)C(C)C)C(=O)N[C@@H](CC(N)=O)C(=O)N[C@H](C(=O)O)[C@@H](C)O [glucagon, human glucagon]
[1]
  Physical stability of glucagon solution at acidic pH: 2 days
[2]
  Stability under ThT measurement conditions: only stable for a few minutes
